# Results taken from patent US5073563A, “Alkoxycoumarins substituted by a heterocyclic radical, their preparation and therapeutic agents containing these compounds” (BASF Aktiengesellschaft, priority 1988, dated 1991).
# Amino acid sequences for entries named in this document (tags omitted).
# UniProt P19643, whole entry: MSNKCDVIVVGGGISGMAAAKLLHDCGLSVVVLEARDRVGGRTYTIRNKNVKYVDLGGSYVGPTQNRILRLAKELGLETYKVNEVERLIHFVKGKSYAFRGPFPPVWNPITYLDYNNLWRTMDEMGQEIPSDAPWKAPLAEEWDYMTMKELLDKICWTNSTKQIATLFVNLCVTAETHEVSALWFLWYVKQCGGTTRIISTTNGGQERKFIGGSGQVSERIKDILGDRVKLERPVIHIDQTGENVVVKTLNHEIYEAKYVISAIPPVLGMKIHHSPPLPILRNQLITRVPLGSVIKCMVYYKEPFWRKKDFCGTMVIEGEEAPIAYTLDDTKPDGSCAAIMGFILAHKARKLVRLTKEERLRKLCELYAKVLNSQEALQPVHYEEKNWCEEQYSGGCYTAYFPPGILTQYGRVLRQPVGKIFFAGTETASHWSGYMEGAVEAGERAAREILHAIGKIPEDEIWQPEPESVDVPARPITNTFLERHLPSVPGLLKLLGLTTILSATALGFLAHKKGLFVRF
# Biological target: T1, MAO B (Rattus norvegicus, UniProt P19643)
# T1 construct: determined in dilute rat brain homogenate; from tissue; host or cells: rat brain homogenate
# Experiment: MAO B inhibition in dilute rat brain homogenate (14C substrate, 20 min at 37° C)
# Assay type: biochemical
# Details: quotient of IC50 MAO A and IC50 MAO B (selectivity for MAO B)
smiles,measurement,value
"NCCNC(=O)c1ccc(Cl)cn1 [Ro 19-6327, reference compound]",IC50 ratio MAO A / MAO B,> 450
